Measurements: US20250213572A1, “TYK2 INHIBITORS AND USES THEREOF” (Takeda Pharmaceutical Company Limited, priority 2022, published 2025)

Legend:
[1] = clinical; conditions: human, in vivo, 200 mg
[2] = 12 mg once-daily; cited from earlier work

| Compound | AUC(0-inf) [1] [ng·h/mL] | peak concentration achieved [2] |
| --- | --- | --- |
| CNc1cc(Nc2cccn(-c3ccccn3)c2=O)nc2c(C(=O)N[C@@H]3CC[C@H]3OC)cnn12 [Compound 1, N-((1R,2R)-2-methoxycyclobutyl)-7-(methylamino)-5-((2-oxo-2H-[1,2′-bipyridin]-3-yl)amino)pyrazolo[1,5-a]pyrimidine-3-carboxamide] | 9020 |  |
| deucravacitinib |  | approximately 120 ng/ml |
